These are literature values, as cited in patent publication US4767764A, “Alkoxyalkyl and alkylmercaptoalkyl substituted bridged benzofuroisoquinolines having opioid antagonist and/or appetite-controlling properties” (E. I. Du Pont de Nemours and Company, priority 1986, dated 1988).

The subject of this data set is μ (mu), κ (kappa) and δ (delta) opioid receptors. Particulars: established opioid antagonists; cited from earlier work.

`C=CCN1CC[C@]23c4c5ccc(O)c4O[C@H]2C(=O)CC[C@@]3(O)[C@H]1C5` [Naloxone, naloxone]: the “opioid receptor binding in words” value is reported as “bind to all three types of receptors, with greatest affinity for the mu receptor”.
